Earlier results, collected in paper PMC7937321 (Genes and Environment, 2021).

Tested on: rodent
Conditions: chromosomal Aberration test, micronucleus test, transgenic rodent gene mutation assay; ref [48], [58]–[63]; cited from earlier work

SMILES: Nc1ccc([N+](=O)[O-])cc1N [4-Nitro-o-phenylenediamine]
- in vivo genotoxicity tests: negative
